Source: patent publication US10052330B2, “Substituted pyrido[3,4-b]pyrazines as Syk inhibitors” (HUTCHISON MEDIPHARMA LIMITED, priority 2011, dated 2018)

Experiments:
RBL-2H3 cells = assay: IgE-induced Beta-hexosaminidase secretion in RBL-2H3 cells; type: cell-based; conditions: Rattus norvegicus, RBL-2H3, read-out: IC50, IgE-induced Beta-hexosaminidase secretion
[1] = test system: Bone marrow mast cells (BMMCs); assay: IgE-induced LAT phosphorylation in bone marrow mast cells; type: cell-based, mice; conditions: Mus musculus, BMMC, read-out: IC50, IgE-induced LAT phosphorylation

An IC50 (RBL-2H3 cells) of 1 to 100 nM was found for N#Cc1cc(-c2cc3nccnc3c(NC[C@@H]3CNCCO3)n2)ccc1N1CCOCC1 [Compound 213] in this work.
An IC50 [1] of 100 to 1000 nM and an IC50 (RBL-2H3 cells) of 1 to 100 nM were found for Clc1cc(-c2cc3nccnc3c(NC[C@@H]3CNCCO3)n2)ccc1N1CCOCC1 [Compound 134] in this work.
